Data on one molecule can be found in PMC7143835, “Anti-Hyperglycemic Effects of Green Crab Hydrolysates Derived by Commercially Available Enzymes” (Foods, 2020).

Amino acid sequences for entries named in this document (tags omitted). A change or cut given only in a name is not applied to a line headed by its entry.
UniProt P22411: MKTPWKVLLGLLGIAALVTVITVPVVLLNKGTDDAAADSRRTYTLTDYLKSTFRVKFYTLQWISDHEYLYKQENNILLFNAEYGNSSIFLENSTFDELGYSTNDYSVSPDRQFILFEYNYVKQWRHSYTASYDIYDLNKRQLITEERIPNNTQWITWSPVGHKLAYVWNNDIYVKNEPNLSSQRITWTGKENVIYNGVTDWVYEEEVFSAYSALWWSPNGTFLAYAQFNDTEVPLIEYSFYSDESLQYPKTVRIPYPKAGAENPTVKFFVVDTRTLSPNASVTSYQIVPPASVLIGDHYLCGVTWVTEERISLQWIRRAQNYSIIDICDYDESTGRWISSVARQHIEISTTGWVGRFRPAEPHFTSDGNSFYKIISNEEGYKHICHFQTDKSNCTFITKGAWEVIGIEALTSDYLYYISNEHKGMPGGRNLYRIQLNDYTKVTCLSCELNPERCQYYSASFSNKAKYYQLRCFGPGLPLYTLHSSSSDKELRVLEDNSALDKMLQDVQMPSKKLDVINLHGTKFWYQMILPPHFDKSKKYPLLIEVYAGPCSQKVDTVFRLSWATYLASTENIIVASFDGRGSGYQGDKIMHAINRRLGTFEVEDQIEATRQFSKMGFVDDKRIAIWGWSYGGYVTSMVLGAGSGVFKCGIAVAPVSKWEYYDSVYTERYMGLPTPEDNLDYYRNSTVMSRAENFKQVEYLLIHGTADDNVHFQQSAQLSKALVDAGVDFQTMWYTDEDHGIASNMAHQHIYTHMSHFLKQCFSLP

pIC50: −log10 of the molar value.

The target in the test is T1, porcine kidney dipeptidyl peptidase-IV (DPP-IV) (Sus scrofa, UniProt P22411).
T1 construct: gene DPP4
Kind of test: biochemical.

As to `N[C@@H](CC(=O)N1CCn2c(nnc2C(F)(F)F)C1)Cc1cc(F)c(F)cc1F` [sitagliptin], the negative-log IC50 (pIC50) is 6.97.
